The conditions of series [1]: not told.
Series [2] can be described thus: BBB permeability in brain-specific Gdnf knockdown mice (brain distribution of fluorescein and FITC-Dex). The settings on record: Gdnf silencing (shGdnf) vs shNC mice; i.v., 30 min.

With FITC-Dextran 3–5 kDa, the “Papp Mean” value in series [1] was determined as 3.229e-05 cm/s. The brain-to-plasma concentration ratios entry in series [2] is given as “notable increases”.

These data come from article PMC11524583, “Neurons enhance blood–brain barrier function via upregulating claudin-5 and VE-cadherin expression due to glial cell line-derived neurotrophic factor secretion” (eLife, 2024).
